This experiment deals with denosumab (as such; mean over the products) (human). The experiment is described as follows: BLI.

Amino acid sequences for entries named in this document (tags omitted). Residues count along the entry.
UniProt P02745, 23-245: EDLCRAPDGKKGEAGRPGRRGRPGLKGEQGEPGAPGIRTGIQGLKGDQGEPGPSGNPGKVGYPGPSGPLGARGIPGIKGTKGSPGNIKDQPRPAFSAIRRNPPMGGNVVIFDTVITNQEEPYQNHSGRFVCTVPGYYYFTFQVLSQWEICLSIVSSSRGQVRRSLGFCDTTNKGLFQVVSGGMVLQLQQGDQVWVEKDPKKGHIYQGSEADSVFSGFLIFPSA
UniProt P02746, 28-253: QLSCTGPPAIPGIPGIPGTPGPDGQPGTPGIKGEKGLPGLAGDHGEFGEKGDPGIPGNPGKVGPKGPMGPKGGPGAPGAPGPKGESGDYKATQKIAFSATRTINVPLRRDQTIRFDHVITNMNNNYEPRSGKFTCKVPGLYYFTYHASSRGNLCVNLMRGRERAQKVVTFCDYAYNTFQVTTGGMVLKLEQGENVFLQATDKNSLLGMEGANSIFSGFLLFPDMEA
UniProt P02747, 29-245: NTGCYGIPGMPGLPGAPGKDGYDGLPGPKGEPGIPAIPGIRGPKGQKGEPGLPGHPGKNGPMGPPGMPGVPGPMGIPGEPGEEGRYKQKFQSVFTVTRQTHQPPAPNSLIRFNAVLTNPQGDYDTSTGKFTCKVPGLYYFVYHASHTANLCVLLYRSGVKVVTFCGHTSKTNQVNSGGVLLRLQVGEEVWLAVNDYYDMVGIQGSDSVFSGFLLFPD

Results on one substance are retold here after article PMC12354141.

As for “human complement component 1q (C1q) (from UniProt P02745;P02746;P02747) (complex)”, the Kd (as a rule, the equilibrium constant for the complex coming apart) was determined as 70 nM.
